The source of these data is patent US20250195483A1, “SPIRO PIPERIDINE DERIVATIVES AS INHIBITORS OF APOL1 AND METHODS OF USING SAME” (Vertex Pharmaceuticals Incorporated, priority 2022, published 2025).

Amino acid sequences for entries named in this document (tags omitted).
UniProt O14791, whole entry: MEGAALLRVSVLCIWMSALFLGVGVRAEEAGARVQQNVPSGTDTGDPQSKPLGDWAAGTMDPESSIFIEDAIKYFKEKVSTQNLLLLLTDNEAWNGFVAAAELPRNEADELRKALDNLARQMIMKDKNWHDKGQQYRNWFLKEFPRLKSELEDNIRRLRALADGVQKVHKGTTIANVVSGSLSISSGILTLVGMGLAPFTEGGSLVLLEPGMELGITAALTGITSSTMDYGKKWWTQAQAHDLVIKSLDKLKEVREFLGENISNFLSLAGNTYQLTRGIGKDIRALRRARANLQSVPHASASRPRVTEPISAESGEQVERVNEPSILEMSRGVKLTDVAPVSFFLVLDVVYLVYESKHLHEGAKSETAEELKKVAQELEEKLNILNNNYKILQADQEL

The target of this experiment is APOL1 (Homo sapiens, UniProt O14791). Kind of experiment: MultiTox-Fluor Multiplex Cytotoxicity Assay, tet-inducible APOL1 T-REx-HEK293 cells (G0, G1 or G2 clone not specified for Table 20). Particulars: read-out: IP50 (i.e., IC50 for cell proliferation), tet-induced, 24 hours with compound, ratio of dead to live cells. The procedure:
Human embryonic kidney (HEK293) cell lines containing a tet-inducible expression system (T-REx™; Invitrogen, Carlsbad, CA) and Adeno-associated virus site 1 pAAVS1-Puro-APOL1 G0 or pAAVS1-Puro-APOL1 G1 or pAAVS1-Puro-APOL1 G2 Clones G0 DC2.13, G1 DC3.25, and G2 DC4.44 were grown in a T-225 flask at ˜90% confluency in cell growth media (DMEM, 10% Tet-free FBS, 2 mM L-glutamine, 100 Units/mL penicillin-streptomycin, 5 μg/mL blasticidin S HCl, 1 μg/mL puromycin dihydrochloride). Cells were washed with DPBS and then trypsinized to dissociate from the flask. Media was used to quench the trypsin, cells were then pelleted at 200 g and resuspended in fresh cell assay media (DMEM, 2% Tet-free FBS, 2 mM L-glutamine, 100 Units/mL penicillin-streptomycin). Cells were counted and diluted to 1.17×10^6 cells/mL. 20 μL of cells (23,400/well) were dispensed in every well of a 384-well Poly-D-Lysine coated plate using the Multidrop dispenser. The plates were then incubated at room temperature for one hour.
Tetracycline is needed to induce APOL1 expression. 1 mg/mL tet stock in water was diluted to 250 ng/mL (5×) in cell assay media. 60 μL of cell assay media (no tet control) was dispensed in columns 1 and 24, and 60 μL of 5× tet in 384-PP-round bottom plate was dispensed in columns 2 to 23 with the Multidrop dispenser.
Assay ready plates from the Global Compound Archive were ordered using template 384_APOL1Cell_DR10n2_50 uM_v3. Compounds were dispensed at 200 nL in DMSO. The final top concentration was 10 μM with a 10 point 3-fold dilution in duplicate in the MultiTox assay.
20 μL was transferred from the 5× tet plate to the ARP and mixed, then 5 μL of 5× tet and the compounds were transferred to the cell plate and mixed using the Bravo. The cell plate was placed in the humidified 37° C. 5% CO2 incubator for 24 hours.
The MultiTox-Fluor Multiplex Cytotoxicity Assay was performed in accordance with the manufacturer's protocol. After cells were incubated with tet and compound for 24 hours, 25 μL of 1× MultiTox reagent was added to each well using the Multidrop dispenser; the plates were placed on a plate shaker (600 rpm) for 2 minutes, then centrifuged briefly and placed back in the 37° C. incubator for 30 minutes. The cell viability (excitation: 400 nm, emission: 486 nm) and cytotoxicity (excitation: 485 nm, emission: 535 nm) were read using the EnVision plate reader. A ratio of dead (cytotoxicity) to live (viability) cells was reported. Data was exported and analyzed in Genedata. Data was normalized using percent of control, no tet (100% viability), and 50 ng/mL tet treated (0% viability), and fit using Smart Fit settings in Genedata.
`COC(=O)N[C@H]1C[C@@H](CN2CCC3(CC2)C(=O)N(C)c2ccc(Cl)cc23)C1`: the IC50 was greater than 500 nM. Then `CN1C(=O)C2(CCN(C[C@H]3C[C@@H](NC(=O)c4cc(Cl)no4)C3)CC2)c2cc(Cl)ccc21`, with greater than 500 nM; and `CN1C(=O)C2(CCN(C[C@H]3C[C@@H](NC(=O)c4ccon4)C3)CC2)c2cc(Cl)ccc21`, with greater than 500 nM; and `CN1C(=O)C2(CCN(C[C@H]3C[C@H](NC(=O)c4cc(C5CC5)no4)C3)CC2)c2cc(Cl)ccc21`, with greater than 500 nM. On to `CCS(=O)(=O)N[C@H]1C[C@H](CN2CCC3(CC2)C(=O)N(C)c2ccc(Cl)cc23)C1`, for which the IC50 was greater than 500 nM.
